Assay results from patent US20240423977A1, “FIVE-MEMBERED RING-FUSED SIX-MEMBERED RING COMPOUND, PREPARATION METHOD THEREFOR, AND PHARMACEUTICAL COMPOSITION AND USE THEREOF” (HANGZHOU POLYMED BIOPHARMACEUTICALS, INC., priority 2022, published 2024).
Where two headings read alike, the source gives them in different places.

Protein sequences, listed by entry. Tags and fused reporters are not part of them.
UniProt Q9NWZ3, whole entry: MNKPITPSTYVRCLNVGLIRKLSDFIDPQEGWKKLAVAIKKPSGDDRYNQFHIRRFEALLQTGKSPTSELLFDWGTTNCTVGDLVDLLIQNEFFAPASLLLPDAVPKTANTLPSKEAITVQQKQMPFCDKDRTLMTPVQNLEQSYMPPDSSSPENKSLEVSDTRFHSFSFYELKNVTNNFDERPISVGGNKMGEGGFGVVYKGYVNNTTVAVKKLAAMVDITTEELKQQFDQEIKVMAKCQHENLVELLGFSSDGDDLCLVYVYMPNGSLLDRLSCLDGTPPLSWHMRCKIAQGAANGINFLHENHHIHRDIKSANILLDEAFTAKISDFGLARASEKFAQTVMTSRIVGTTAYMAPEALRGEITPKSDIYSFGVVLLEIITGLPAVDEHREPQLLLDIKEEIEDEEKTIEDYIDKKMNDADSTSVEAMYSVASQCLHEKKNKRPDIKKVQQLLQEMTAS

Tests used:
[1] = target: IRAK4 protein in THP-1 cells (Homo sapiens (Human), UniProt Q9NWZ3); experiment: PROTAC-induced IRAK4 protein degradation in THP-1 cells (Western Blot); settings: for DC50: read-out: IRAK4 DC50, concentration that degraded 50% of IRAK4, Western blotting, 24 hours after administration; for IRAK4 degradation rate 24 hours after administration of the compounds with a concentration of 1 μM: Western blotting
Method: 2.1 Based on the experimental method of Western Blot, specific antibodies were used to stain the THP-1 cell samples treated by gel electrophoresis, and the degrading activity of the compounds on the IRAK4 protein in THP-1 cells was determined by analyzing the position and depth of staining. The concentrations of compound for the detection included 0 μM, 0.3 μM, 1 μM and 3 μM, and the cells were treated by the compound for 8 hours, 16 hours, 24 hours, and 48 hours. Glyceraldehyde-3-phosphate dehydrogenase (GAPDH) is an internal reference protein in this experiment.
Electrophoresis buffer: 50 mL MOPS SDS Running Buffer (20×) and 50 mL 20×TBS Tween-20 buffer were diluted with deionized water to 1 L as the electrophoresis buffer;
5% skim milk (w/v): 2.5 g skim milk was diluted with 50 mL 1×TBS Tween-20 buffer to prepare 5% skim milk;
5% BSA (w/v): 2.5 g BSA was diluted with 50 mL 1×TBS Tween-20 buffer to prepare 5% BSA;
Anti-IRAK4 antibody was diluted with 5% BSA at 1:1000 into a primary antibody working solution;
Goat Anti-Rabbit IgG H&L (HRP) was diluted with 5% BSA at 1:2000 into a second antibody working solution; and
Goat Anti-Mouse IgG H&L (HRP) was diluted with 5% BSA at 1:2000 into a second antibody working solution.
THP-1 cells were plated in a 6-well plate at a density of 1.5×10^6 cells per ml and incubated for 2 hours in a cell culture incubator under 37° C. and 5% CO2. The compound was diluted with DMSO to 0.6 mM, 0.2 mM and 0.06 mM respectively. 10 μL of compound solution was added to the corresponding wells, and continued to incubate in the incubator for 16 hours, 24 hours and 48 hours respectively. The compound-treated THP-1 cells in the well were collected, added with 120 μL of RIPA lysate containing protease inhibitor, Phosphatase Inhibitor Cocktail 2 and Phosphatase Inhibitor Cocktail 3, lysed on wet ice for 30 minutes, and then the cells lysate was centrifuged at a high speed and a low temperature for 5 minutes to collect the supernatant. The protein concentration of the cell sample was determined according to the instructions in the Pierce™ BCA Protein Assay Kit.
The concentration of the sample was adjusted to be consistent using lysis buffer and NuPAGE® LDS sample buffer containing 1M DTT. The samples were heated at 95° C. for 5 minutes and centrifuged at a low temperature and at a high speed. 20 μL of the prepared protein sample and 4 μL of PageRuler Prestained Protein Ladder were added into the gel well for running at 80V voltage for 0.5 hours, then the voltage was adjusted to 120V for further running for 1.5 hours. The gel was removed and the proteins in the gel were transferred to the IBlotTM 2 transfer membrane set at 20V. After successful transfer, bands at 65 kDa-40 kDa and 40 kDa-30 kDa were cut respectively. The membranes were blocked with 5% skim milk for 1 hour at room temperature. The membranes were washed three times with 1× concentration of TBST, then incubated with IRAK4 antibody working solution overnight at 4° C. The IRAK4 antibody working solution was discarded, and the membranes were washed three times with 1×concentration of TBST, and incubated with Goat Anti-Rabbit IgG H&L (HRP) working solution and Goat Anti-Mouse IgG H&L (HRP) working solution at room temperature. After 1 hour of incubation, the antibody working solution was discarded and the membranes were washed three times with 1× concentration of TBST. According to the instructions of the kit SuperSignal™ West Femto Maximum Sensitivity Substrate, the reagents in the kit were mixed in equal volume proportions to prepare a luminescent liquid mixture. The membranes were incubated for 1 minute, then removed for exposure.
The results of Western blotting 24 hours after administration of the compounds with a concentration of 1 μM were shown in Table 3: […]

kinase IRAK4 = kinase IRAK4 (Homo sapiens (Human), UniProt Q9NWZ3); experiment: Inhibitory effects of compounds on kinase activity (fluorescence microfluidic mobility detection, competitive with ATP); settings: read-out: IRAK4 IC50, IRAK4 6 nM, ATP 10 μM
Method: Based on an experimental method of fluorescence microfluidic mobility detection, an IC50 value of competitive binding of kinase IRAK4 to ATP by the compounds was determined. The initial detection concentration of the compounds was 10 μM, diluted 4-fold gradient down to […], and tested in duplicate. Among them, commercial staurosporine was the standard control substance in this experiment.
1) IRAK4 kinase was dissolved in kinase buffer (50 mM HEPES pH 7.5, 10 mM MgCl2, 2 mM DTT and 0.01% Brij-35) to a final concentration of 6 nM.
2) The substrate peptide FAM-P8 and ATP were dissolved in the above kinase buffer. The final concentrations of the IRAK4 substrate peptide FAM-P8 and ATP were 3 μM and 10 μM respectively.
3) Dilution of the compounds: the compound was first diluted to 50 μM, and then diluted down with a 4-fold gradient of DMSO. The solution without the compound and kinase is used as a blank control, corresponding to the “minimum value” shown below; and the solution without the compound but with kinase, adenosine 5′-triphosphate disodium salt hydrate, DMSO and buffer is used as a positive control, corresponding to the “maximum value” shown below. 4) Kinase reaction and termination: 10 μL of kinase buffer was added to a 384-well plate containing 5 μL of the compound to be tested, and incubated at room temperature for 10 minutes. Another 10 μL of buffer containing the substrate peptide and adenosine 5′-triphosphate disodium salt hydrate was added to the 384-well plate. After incubation at 28° C. for one hour, 25 μL stop solution (100 mM HEPES pH 7.5, 50 mM EDTA, 0.2% Coating Reagent #3 and 0.015% Brij-35) was added to each well to terminate the reaction.
5) Data reading: the CaliperEZ Reader II instrument was used to read the conversion rate data. Conditions: downstream voltage −500V, upstream voltage −2250V, base pressure −0.5 PSI, and screening pressure −1.2 PSI.
6) Data calculation: the conversion rate data was copied from CaliperEZ Reader II and converted into inhibition rate data. The calculation formula is as follows: […]

| DC50 [1] [nM] | IC50 (kinase IRAK4; Table 2, substrate FAM-P8 3 μM) [nM] | IRAK4 degradation rate 24 hours after administration of the compounds with a concentration of 1 μM [1] | IC50 (kinase IRAK4; Table 1, class symbols) [nM] | Structure (SMILES) |
| --- | --- | --- | --- | --- |
| > 1000 |  |  |  | O=C1CCC(N2C(=O)c3ccc(N4CCC(C(=O)N5CCC6(CC5)CN(c5nc7nc(N8CC[C@@H](O)C8)c(NC(=O)c8cccc(C(F)(F)F)n8)cc7o5)C6)CC4)cc3C2=O)C(=O)N1 (stereo partly shown) |
| 26.2 |  |  |  | COc1cc2c(cc1NC(=O)c1cccc(C(F)(F)F)n1)CN(C1CC3(CCN(C(=O)C4CCN(c5ccc6c(c5)C(=O)N(C5CCC(=O)NC5=O)C6=O)CC4)CC3)C1)C2=O (stereo not shown) |
| 6.6 |  |  |  | [2H]C([2H])([2H])Oc1cc2nn(C3CC4(CCN(C(=O)C5CCN(c6ccc7c(c6)C(=O)N(C6CCC(=O)NC6=O)C7=O)CC5)CC4)C3)cc2cc1NC(=O)c1cccc(C(F)(F)F)n1 (stereo not shown) |
| 7.2 | 10.2 |  |  | [2H]C([2H])([2H])C(O)(c1cc2nn(C3CC4(CCN(C(=O)C5CCN(c6ccc7c(c6)C(=O)N(C6CCC(=O)NC6=O)C7=O)CC5)CC4)C3)cc2cc1NC(=O)c1cccc(C(F)(F)F)n1)C([2H])([2H])[2H] (stereo not shown) |
|  |  | 75~100% |  | COc1cc2nn(C3CC4(CCN(C(=O)C5CCN(c6ccc7c(c6)C(=O)N(C6CCC(=O)NC6=O)C7=O)CC5)CC4)C3)cc2cc1NC(=O)c1cccc(C(F)(F)F)n1 (single isomer, unassigned) |
| 4.33 | 16.4 | 75~100% | < 100 | COc1cc2nn(C3CCN(CC(=O)N4CCN(c5ccc6c(c5)C(=O)N(C5CCC(=O)NC5=O)C6=O)CC4)CC3)cc2cc1NC(=O)c1cccc(C(F)(F)F)n1 (stereo not shown) |
